Tested on: CRS in SCID or humanized mice with Raji-luc tumor cells
Test: Mouse model of Raji-luc tumor with CAR-T induced CRS (Example 2)
Conditions: IP, BID for 7 days, start 5 hours prior to CAR-T cell transfer

CC#CC[C@H](C)[C@H](O)/C=C/[C@@H]1[C@H]2c3cccc(CCCC(=O)[O-])c3O[C@H]2C[C@H]1O.[Na+] [CTO1681, (+)-[1R, 2R, 3aS, 8bS]-2,3,3a,8b-tetrahydro-2-hydroxy-1-[(E)-(3S,4S)-3-hydroxy-4-methyl-1-octen-6-ynyl)-1Hcyclopenta[b]benzofuran-5-butanoic acid, monosodium salt]
Cytokine production versus control group (listed as CT01681, monosodium salt): lower undesired cytokine production
Cytokine production versus control group (monosodium salt): superior to dexamethasone

— patent US20230242679A1, “BISPECIFIC ANTIBODY THERAPIES” (priority 2022, published 2023)
